Experimental data taken from patent US20070157931A1, “System and method for optimized delivery of an aerosol to the respiratory tract” (priority 2005, published 2007).

Experiment: Aerosol deposition and clearance of radiotracers in lungs of ventilated sheep (Hawkeye imaging, gamma counting of lung tissue)
Format: in vivo
Conditions: Hi-Flo MiniHeart nebulizer
Experimental: The present study was designed to assess aerosol deposition patterns using jet nebulizers and the device of the present disclosure. These studies were conducted in the Vanderbilt University Medical Center Hawkeye scanning facility. Each sheep was surgically instrumented with catheters in a jugular vein and a carotid artery. After allowing several days for the sheep to recuperate from surgery, they were anesthetized, intubated, ventilated, and placed on the GE Hawkeye scanner bed. After a 30 minute acclimatization period, 500 μCi of ^99mTc-DTPA and 250 μCi of 131I-albumin were added to a syringe and the volume brought to 5 ml with normal saline. The contents of the syringe were then added to a nebulizer and aerosols generated for 30 minutes during ventilator-assisted inspiration. Planar images were taken every two minutes with anterior and posterior cameras. Nebulization was then halted, and clearance of the radiotracers over two hours was measured with Hawkeye in an identical manner. At the end of the radioisotope clearance image acquisition, a rotational CT image was taken of the sheep thoracic cavity to delineate lung boundaries and chest anatomy. The sheep was sacrificed and its lungs excised. Lungs were placed on grid paper and diced with a rectangular cutting grid. Lung tissue was placed in plastic vials and gamma energy emissions of each isotope measured with a gamma counter.

## 131I-albumin: radiolabelled albumin tracer delivered as aerosol
2 hours after halting aerosol generation
  tracer remaining in lungs after halting aerosol generation: much of the tracer remained
Gamma counting of lung tissue samples
  radioisotope distribution in lung tissue: higher dorsal (towards back) and caudal (towards tail) deposition
